{"source": "paper PMC11492869", "about": "“Dimerization and lysine substitution of melittin have differing effects on bacteria” (Frontiers in Pharmacology, 2024)", "format_in_all_cases": "cell-based", "key": {"E. coli ATCC 8739 [1]": {"tested_on": "E. coli ATCC 8739", "conditions": "cation-adjusted MHB, 90 min incubation at 37°C, plated on LB agar 12–24 h, lowest concentration giving less than one CFU (≥99.9% reduction), mean ± SD, at least three biological repeats", "method": "(§1) For the antimicrobial peptide assays, a 10 mL starter culture was produced by taking single colonies from LB agar plates to inoculate in Lysogeny/Luria Broth (1% w/v Oxoid Tryptone, 0.5% w/v NaCl, 0.5% w/v Oxoid Yeast Extract, pH 7.0, Thermo Scientific Pty, Ltd., Sydney, Australia) for bacteria; S. aureus ATCC 29213 and E. coli ATCC 8739 were grown aerobically at 37°C in an orbital shaker (Minitron, Infors HT) at 200 rpm. After overnight incubation, 0.5–1.0 mL of the starter culture was used to inoculate fresh LB broth (20 mL), and its growth was monitored at 600 nm using a spectrophotometer (model Varian Cary 50 Bio UV-Vis). Bacteria were harvested during the late exponential growth phase, and CFUs/mL were determined using the growth curve data set that correlated OD600 to CFUs/mL.\n(§2) Antibacterial assays were undertaken to determine the minimum inhibitory concentration (MIC), the minimum bactericidal concentration (MBC), and the level of membrane disruption of each of the antimicrobial peptides (AMPs) and multimerized AMPs. For each bacterium, a stock solution (2 × 10^6 cells/mL) in cation-adjusted Mueller Hinton Broth (MHB) was made, and an aliquot was incubated with AMPs within 15 min from viable cell count and stock preparation. All AMPs were dissolved in 5% dimethylsulfoxide (DMSO) and 1 mg/mL stock solutions prepared in PBS. Serial dilutions with 2 x dilution factor (16.87–0.18 μM) of the AMP in cation-adjusted MHB (100 μL/well) were made immediately prior to the addition of bacteria. […] Aliquots (100 μL) of the bacterial stock solution were added to the AMP serial dilutions (final bacterial concentration 1 × 10^5 cells/well) and incubated at 37°C for 90 min. Bacteria were also incubated in the absence of AMP to serve as a growth control for the assay. After the 90-min incubation period, the antimicrobial activity (MIC and MBC) was determined as follows:\n(§3) The CLSI protocol was followed to determine MBC. After incubation, bacteria were serially diluted (1:10) in PBS, plated on LB agar, and incubated for 12–24 h at 37°C; then, the CFUs were quantified. The MBC was thus determined as the lowest concentration (μM) of AMP resulting in less than one CFU. The data were fitted to an exponential model, and as such, 1 CFU was considered to be a ≥99.9% reduction in the initial colony count after incubation."}, "S. aureus ATCC 29213 [2]": {"tested_on": "S. aureus ATCC 29213", "conditions": "cation-adjusted MHB, 90 min incubation at 37°C, plated on LB agar 12–24 h, lowest concentration giving less than one CFU (≥99.9% reduction), mean ± SD, at least three biological repeats", "method": "as §1, §2, §3"}, "E. coli ATCC 8739 [3]": {"tested_on": "E. coli ATCC 8739", "conditions": "cation-adjusted MHB, 1 × 10^5 cells/well, 90 min incubation with peptide at 37°C, then growth monitored 20 h at OD630, Lambert and Pearson analysis, mean ± SD, at least three biological repeats", "method": "as §1, §2\n(§4) For MIC, the Clinical and Laboratory Standards Institute (CLSI) broth microdilution assay was followed, with the modifications being that due to the rapid action of the AMPs, the assay incubation time was shortened from 16–20 h to 90 min ([CLSI, 2018]). In brief, after the 90 min incubation, bacterial growth was monitored at 10 min intervals with shaking at each interval over a 20 h period at OD630 using a BioTek 800™ TS Absorbance Reader (Millennium Science Pty Ltd. Melbourne, Australia), which incubated the cultures at 37°C. The MIC was calculated using the Lambert and Pearson growth curve analysis method by plotting the relative growth at each peptide concentration compared to maximal growth (determined as the point when bacteria incubated in broth alone entered the stationary phase of growth, 100% growth)."}, "S. aureus ATCC 29213 [4]": {"tested_on": "S. aureus ATCC 29213", "conditions": "cation-adjusted MHB, 1 × 10^5 cells/well, 90 min incubation with peptide at 37°C, then growth monitored 20 h at OD630, Lambert and Pearson analysis, mean ± SD, at least three biological repeats", "method": "as §1, §2, §4"}}, "note": "Marks after values point to notes of the source that are not given here.", "data": [{"smiles": "CC[C@H](C)[C@H](NC(=O)CN)C(=O)NCC(=O)N[C@@H](C)C(=O)N[C@H](C(=O)N[C@@H](CC(C)C)C(=O)N[C@@H](CCCN)C(=O)N[C@H](C(=O)N[C@@H](CC(C)C)C(=O)N[C@H](C(=O)N[C@H](C(=O)NCC(=O)N[C@@H](CC(C)C)C(=O)N1CCC[C@H]1C(=O)N[C@@H](C)C(=O)N[C@@H](CC(C)C)C(=O)N[C@H](C(=O)N[C@@H](CO)C(=O)N[C@@H](Cc1c[nH]c2ccccc12)C(=O)N[C@H](C(=O)N[C@@H](CCCN)C(=O)N[C@@H](CCCNC(=N)N)C(=O)N[C@@H](CCCN)C(=O)N[C@@H](CCCNC(=N)N)C(=O)N[C@@H](CCC(N)=O)C(=O)N[C@@H](CCC(N)=O)C(N)=O)[C@@H](C)CC)[C@@H](C)CC)[C@@H](C)O)[C@@H](C)O)C(C)C)C(C)C", "note": "[2. Lys → Orn melittin]", "values": [{"measurement": "MBC", "setting": "E. coli ATCC 8739 [1]", "result": "7.10 ± 1.68 ^b- µM"}, {"measurement": "MBC", "setting": "S. aureus ATCC 29213 [2]", "result": "1.83 ± 1.21", "unit": "µM"}, {"measurement": "MIC", "setting": "E. coli ATCC 8739 [3]", "result": "4.32 ± 0.31 ^a ^, ^b- µM"}, {"measurement": "MIC", "setting": "S. aureus ATCC 29213 [4]", "result": "1.28 ± 0.06 ^b- µM"}]}, {"smiles": "CC[C@H](C)[C@H](NC(=O)CN)C(=O)NCC(=O)N[C@@H](C)C(=O)N[C@H](C(=O)N[C@@H](CC(C)C)C(=O)N[C@@H](CCN)C(=O)N[C@H](C(=O)N[C@@H](CC(C)C)C(=O)N[C@H](C(=O)N[C@H](C(=O)NCC(=O)N[C@@H](CC(C)C)C(=O)N1CCC[C@H]1C(=O)N[C@@H](C)C(=O)N[C@@H](CC(C)C)C(=O)N[C@H](C(=O)N[C@@H](CO)C(=O)N[C@@H](Cc1c[nH]c2ccccc12)C(=O)N[C@H](C(=O)N[C@@H](CCN)C(=O)N[C@@H](CCCNC(=N)N)C(=O)N[C@@H](CCN)C(=O)N[C@@H](CCCNC(=N)N)C(=O)N[C@@H](CCC(N)=O)C(=O)N[C@@H](CCC(N)=O)C(N)=O)[C@@H](C)CC)[C@@H](C)CC)[C@@H](C)O)[C@@H](C)O)C(C)C)C(C)C", "note": "[3. Lys → Dab melittin]", "values": [{"measurement": "MBC", "setting": "E. coli ATCC 8739 [1]", "result": "5.62 ± 1.10 ^a ^, ^b- µM"}, {"measurement": "MBC", "setting": "S. aureus ATCC 29213 [2]", "result": "1.76 ± 0.92", "unit": "µM"}, {"measurement": "MIC", "setting": "E. coli ATCC 8739 [3]", "result": "5.51 ± 0.52 ^b- µM"}, {"measurement": "MIC", "setting": "S. aureus ATCC 29213 [4]", "result": "1.47 ± 0.08", "unit": "µM"}]}, {"smiles": "CC[C@H](C)[C@H](NC(=O)CN)C(=O)NCC(=O)N[C@@H](C)C(=O)N[C@H](C(=O)N[C@@H](CC(C)C)C(=O)N[C@@H](CN)C(=O)N[C@H](C(=O)N[C@@H](CC(C)C)C(=O)N[C@H](C(=O)N[C@H](C(=O)NCC(=O)N[C@@H](CC(C)C)C(=O)N1CCC[C@H]1C(=O)N[C@@H](C)C(=O)N[C@@H](CC(C)C)C(=O)N[C@H](C(=O)N[C@@H](CO)C(=O)N[C@@H](Cc1c[nH]c2ccccc12)C(=O)N[C@H](C(=O)N[C@@H](CN)C(=O)N[C@@H](CCCNC(=N)N)C(=O)N[C@@H](CN)C(=O)N[C@@H](CCCNC(=N)N)C(=O)N[C@@H](CCC(N)=O)C(=O)N[C@@H](CCC(N)=O)C(N)=O)[C@@H](C)CC)[C@@H](C)CC)[C@@H](C)O)[C@@H](C)O)C(C)C)C(C)C", "note": "[4. Lys → Dap melittin]", "values": [{"measurement": "MBC", "setting": "E. coli ATCC 8739 [1]", "result": "5.64 ± 1.17 ^a ^, ^b- µM"}, {"measurement": "MBC", "setting": "S. aureus ATCC 29213 [2]", "result": "2.76 ± 0.01 ^b+ µM"}, {"measurement": "MIC", "setting": "E. coli ATCC 8739 [3]", "result": "5.62 ± 0.81 ^b- µM"}, {"measurement": "MIC", "setting": "S. aureus ATCC 29213 [4]", "result": "1.59 ± 0.15 ^b+ µM"}]}, {"smiles": "CC[C@H](C)[C@H](NC(=O)CN)C(=O)NCC(=O)N[C@@H](C)C(=O)N[C@H](C(=O)N[C@@H](CC(C)C)C(=O)N[C@@H](CCCCN)C(=O)N[C@H](C(=O)N[C@@H](CC(C)C)C(=O)N[C@H](C(=O)N[C@H](C(=O)NCC(=O)N[C@@H](CC(C)C)C(=O)N1CCC[C@H]1C(=O)N[C@@H](C)C(=O)N[C@@H](CC(C)C)C(=O)N[C@H](C(=O)N[C@@H](CO)C(=O)N[C@@H](Cc1c[nH]c2ccccc12)C(=O)N[C@H](C(=O)N[C@@H](CCCCN)C(=O)N[C@@H](CCCNC(=N)N)C(=O)N[C@@H](CCCCN)C(=O)N[C@@H](CCCNC(=N)N)C(=O)N[C@@H](CCC(N)=O)C(=O)N[C@@H](CCC(N)=O)C(=O)NCCCC[C@H](N)C(=O)NCC(=O)N[C@H](C(=O)NCC(=O)N[C@@H](C)C(=O)N[C@H](C(=O)N[C@@H](CC(C)C)C(=O)N[C@@H](CCCCN)C(=O)N[C@H](C(=O)N[C@@H](CC(C)C)C(=O)N[C@H](C(=O)N[C@H](C(=O)NCC(=O)N[C@@H](CC(C)C)C(=O)N1CCC[C@H]1C(=O)N[C@@H](C)C(=O)N[C@@H](CC(C)C)C(=O)N[C@H](C(=O)N[C@@H](CO)C(=O)N[C@@H](Cc1c[nH]c2ccccc12)C(=O)N[C@H](C(=O)N[C@@H](CCCCN)C(=O)N[C@@H](CCCNC(=N)N)C(=O)N[C@@H](CCCCN)C(=O)N[C@@H](CCCNC(=N)N)C(=O)N[C@@H](CCC(N)=O)C(=O)N[C@@H](CCC(N)=O)C(N)=O)[C@@H](C)CC)[C@@H](C)CC)[C@@H](C)O)[C@@H](C)O)C(C)C)C(C)C)[C@@H](C)CC)[C@@H](C)CC)[C@@H](C)CC)[C@@H](C)O)[C@@H](C)O)C(C)C)C(C)C", "note": "[6. Antiparallel dimer]", "values": [{"measurement": "MBC", "setting": "E. coli ATCC 8739 [1]", "result": "5.64 ± 1.08 ^a ^, ^b- µM"}, {"measurement": "MBC", "setting": "S. aureus ATCC 29213 [2]", "result": "7.25 ± 1.20 ^a ^, ^b+ µM"}, {"measurement": "MIC", "setting": "E. coli ATCC 8739 [3]", "result": "6.02 ± 1.22 ^b- µM"}, {"measurement": "MIC", "setting": "S. aureus ATCC 29213 [4]", "result": "5.18 ± 0.36 ^a ^, ^b+ µM"}]}, {"smiles": "CC[C@H](C)[C@H](NC(=O)CN)C(=O)NCC(=O)N[C@@H](C)C(=O)N[C@H](C(=O)N[C@@H](CC(C)C)C(=O)N[C@@H](CCCCN)C(=O)N[C@H](C(=O)N[C@@H](CC(C)C)C(=O)N[C@H](C(=O)N[C@H](C(=O)NCC(=O)N[C@@H](CC(C)C)C(=O)N1CCC[C@H]1C(=O)N[C@@H](C)C(=O)N[C@@H](CC(C)C)C(=O)N[C@H](C(=O)N[C@@H](CO)C(=O)N[C@@H](Cc1c[nH]c2ccccc12)C(=O)N[C@H](C(=O)N[C@@H](CCCCN)C(=O)N[C@@H](CCCNC(=N)N)C(=O)N[C@@H](CCCCN)C(=O)N[C@@H](CCCNC(=N)N)C(=O)N[C@@H](CCC(N)=O)C(=O)N[C@@H](CCC(N)=O)C(N)=O)[C@@H](C)CC)[C@@H](C)CC)[C@@H](C)O)[C@@H](C)O)C(C)C)C(C)C", "note": "[1. Melittin, Melittin]", "values": [{"measurement": "MIC", "setting": "S. aureus ATCC 29213 [4]", "result": "1.44 ± 0.11", "unit": "µM"}]}]}
